From patent US10927076B2, “HSP90B N-terminal isoform-selective inhibitors” (priority 2017, dated 2021)

Amino acid sequences for entries named in this document (tags omitted).
UniProt P08238, whole entry: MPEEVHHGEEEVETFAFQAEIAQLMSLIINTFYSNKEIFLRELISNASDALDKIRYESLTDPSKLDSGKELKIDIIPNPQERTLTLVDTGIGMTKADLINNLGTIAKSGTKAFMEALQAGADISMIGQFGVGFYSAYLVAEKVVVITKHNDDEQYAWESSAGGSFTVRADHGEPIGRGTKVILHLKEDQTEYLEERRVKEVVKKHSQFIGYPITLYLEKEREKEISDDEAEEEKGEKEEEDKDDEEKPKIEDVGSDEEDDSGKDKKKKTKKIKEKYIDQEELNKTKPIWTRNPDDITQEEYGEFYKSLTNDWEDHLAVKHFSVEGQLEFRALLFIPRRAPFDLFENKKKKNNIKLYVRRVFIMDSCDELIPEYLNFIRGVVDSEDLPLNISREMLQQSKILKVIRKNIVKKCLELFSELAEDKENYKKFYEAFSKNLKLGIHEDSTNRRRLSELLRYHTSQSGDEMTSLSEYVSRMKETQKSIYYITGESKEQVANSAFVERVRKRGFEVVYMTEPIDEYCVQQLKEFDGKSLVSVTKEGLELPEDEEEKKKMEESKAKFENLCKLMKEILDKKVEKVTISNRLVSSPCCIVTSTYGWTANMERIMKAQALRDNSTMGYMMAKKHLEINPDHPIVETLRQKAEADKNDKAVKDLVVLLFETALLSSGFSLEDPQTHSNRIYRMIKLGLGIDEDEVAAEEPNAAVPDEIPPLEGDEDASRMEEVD

Tests used:
Hsp90β = Hsp90β (Homo sapiens (Human), UniProt P08238); experiment: Fluorescence polarization assay (FITC-GDA tracer displacement); assay type: binding; details: for Kd: fluorescence polarization
HEK-293 cells = experiment: cells; details: Homo sapiens, HEK293, read-out: IC50, HEK-293

SMILES | Kd (Hsp90β) [nM] | selectivity for Hsp90β over Hsp90α (Hsp90β) [fold] | IC50 (HEK-293 cells) [nM]
CC(C)c1cc(C(=O)N2Cc3ccccc3C2)c(O)cc1C=O [CHO] | 240 ± 80 | – | –
CC(C)c1cc(C(=O)N2Cc3ccccc3C2)c(O)cc1C=O [Compound 4, 5-Hydroxy-4-(isoindoline-2-carbonyl)-2-isopropylbenzaldehyde] | 310 | ~4 | –
CC(C)c1cc(C(=O)N2Cc3ccccc3C2)c(O)c2cnoc12 [KUNB31a, (4-Hydroxy-7-isopropylbenzo[d]isoxazol-5-yl)(isoindolin-2-yl)methanone] | – | – | > 100000
